Experimental data reported in article PMC12355554, “Development of novel mitochondrial pyruvate carrier inhibitors for breast cancer treatment” (The Journal of Biological Chemistry, 2025).

Sequences of proteins named here, by UniProt entry; tags and fusion partners are left off. A change or cut given only in a name is not applied to a line headed by its entry.
UniProt Q12809: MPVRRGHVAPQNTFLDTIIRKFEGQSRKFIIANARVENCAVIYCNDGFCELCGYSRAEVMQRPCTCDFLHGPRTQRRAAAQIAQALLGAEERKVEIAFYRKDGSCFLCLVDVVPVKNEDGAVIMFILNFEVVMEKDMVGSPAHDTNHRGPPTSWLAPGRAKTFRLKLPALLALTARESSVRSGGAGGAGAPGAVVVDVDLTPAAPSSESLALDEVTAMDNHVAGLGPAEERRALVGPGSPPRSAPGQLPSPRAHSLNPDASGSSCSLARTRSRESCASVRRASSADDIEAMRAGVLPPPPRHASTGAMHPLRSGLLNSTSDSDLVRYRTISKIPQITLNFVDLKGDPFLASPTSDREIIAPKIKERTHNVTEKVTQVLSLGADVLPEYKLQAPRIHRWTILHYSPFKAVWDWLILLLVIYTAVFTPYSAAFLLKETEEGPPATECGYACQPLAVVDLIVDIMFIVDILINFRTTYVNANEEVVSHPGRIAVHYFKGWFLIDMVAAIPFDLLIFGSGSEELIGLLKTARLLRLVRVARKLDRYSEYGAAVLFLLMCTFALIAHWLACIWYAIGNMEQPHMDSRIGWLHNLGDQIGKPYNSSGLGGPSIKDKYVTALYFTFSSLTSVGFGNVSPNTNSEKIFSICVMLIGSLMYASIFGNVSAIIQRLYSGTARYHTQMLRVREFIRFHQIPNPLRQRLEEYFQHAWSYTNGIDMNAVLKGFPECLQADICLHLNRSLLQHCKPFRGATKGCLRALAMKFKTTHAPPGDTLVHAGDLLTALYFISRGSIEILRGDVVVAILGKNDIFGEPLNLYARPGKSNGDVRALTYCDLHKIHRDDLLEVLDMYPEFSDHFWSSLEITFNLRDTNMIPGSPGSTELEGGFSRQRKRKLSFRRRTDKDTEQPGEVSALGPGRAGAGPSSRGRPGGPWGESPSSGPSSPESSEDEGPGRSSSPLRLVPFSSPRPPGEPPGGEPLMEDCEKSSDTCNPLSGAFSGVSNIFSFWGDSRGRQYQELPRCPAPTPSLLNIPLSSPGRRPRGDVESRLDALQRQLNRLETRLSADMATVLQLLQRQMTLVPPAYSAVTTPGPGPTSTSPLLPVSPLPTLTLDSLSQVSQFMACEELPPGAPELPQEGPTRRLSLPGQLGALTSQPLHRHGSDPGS

Columns and labels:
[1] = test system: 67NR tumor; assay: Tumor efficacy study in a 67NR syngraft; settings: BALB/c, 5 mg/kg intraperitoneally once daily for 14 days
[2] = target: human Ether-a-go-go (hERG) potassium channels (Homo sapiens, UniProt Q12809); assay: hERG inhibition assay (ion channel electrophysiology); settings: at concentrations that it inhibits the MPC

CN(Cc1ccc(C(F)(F)F)cc1)c1ccc2cc(C(=O)O)c(=O)oc2c1.NC(CO)(CO)CO [C5, 1,3-dihydroxy-2-(hydroxymethyl)propan-2-aminium 7-(methyl(4-(trifluoromethyl)benzyl)amino)-2-oxo-2H-chromene-3-carboxylate]
reduction in tumor mass compared with vehicle [1]: ~71%
reduction in tumor volume compared with vehicle [1]: ~79%
hERG channel function inhibition [2]: did not inhibit
